Sequences of proteins named here, by UniProt entry; tags and fusion partners are left off. A line that says so, or that is headed by a name, gives the form on record, which may keep a tag or linker.
UniProt P42858, with tags, fused parts or gaps limits assumed, stated change not applied: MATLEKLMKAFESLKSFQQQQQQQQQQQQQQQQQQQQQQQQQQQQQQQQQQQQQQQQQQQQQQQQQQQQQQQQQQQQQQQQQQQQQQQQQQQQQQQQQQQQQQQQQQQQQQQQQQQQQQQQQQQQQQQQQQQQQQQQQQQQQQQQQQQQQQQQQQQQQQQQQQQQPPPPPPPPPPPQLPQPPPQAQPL

According to patent publication US20100069304A1, “PROTECTIVE EFFECTS OF INHIBITING THE INTERACTION OF CALMODULIN AND MUTANT HUNTINGTIN PROTEIN” (priority 2008, published 2010):

Columns and labels:
[1] = target: T1, mutant huntingtin (htt-N63-148Q) (Homo sapiens, UniProt P42858, INS26QQQQQQQQQQ/INS27QQQQQQQQQQ/INS28QQQQQQQQQQ/INS29QQQQQQQQQQ/INS30QQQQQQQQQQ/INS31QQQQQQQQQQ/INS32QQQQQQQQQQ/INS33QQQQQQQQQQ/INS34QQQQQQQQQQ/INS35QQQQQQQQQQ/INS36QQQQQQQQQQ/INS37QQQQQQQQQQ/INS38QQQQQQQ); experiment: TG-modified huntingtin (81D4 immunoprecipitation and immunoblot) in transfected HEK-293T cells; assay type: cell-based; details: HEK-293T cells with htt-N63-148Q, TG2 and CaM construct, compared to htt-N63-148Q, TG2 and vector (control)
T1 construct: myc; expressed in transfected cells; host or cells: HEK-293T

[2] = system: IP3R-mediated Ca^2+ release; experiment: Carbachol-stimulated intracellular Ca2+ release (Fura-2) in transfected HEK-293T cells; assay type: cell-based, human; details: 60 μM carbachol, compared to htt-N63-148Q and TG2 expressing cells

CaM-C-term: calmodulin fragment: last 72 amino acids, contains the third and fourth Ca2+ binding sites
decrease in TG-modified huntingtin [1]: ~2 fold | carbachol-stimulated Ca^2+ release (in words) [2]: small decrease that did not reach statistical significance
